Molecular target: T1, Human Aβ(1–42)-HiLyte™-Fluor555 (human, UniProt P05067 672-713, HiLyte Fluor555 dye attached to the N-terminus amino acid)
T1 construct: amyloid β(1–42), the 42-residue peptide cut from the amyloid precursor protein, human; numbers count on: the Aβ peptide; also called Aβ(1–42) HiLyte^TM-Fluor555; fluorescent Aβ(1–42); source: bought: AnaSpec (Freemont, CA, USA)
Assay: other fluorescence titration; reversion of the fluorescence increase: 100 nM non-labelled Aβ(1–42) added after complex formation of 10 nM Aβ(1–42) HiLyte Fluor555 with 5 nM calbindin-D28k; same buffer, 24–25 °C
Conditions: both partners purified

B1: calbindin-D28k (natural protein)
chain: MAESHLQSSLITASQFFEIWLHFDADGSGYLEGKELQNLIQELQQARKKAGLELSPEMKTFVDQYGQRDDGKIGIVELAHVLPTEENFLLLFRCQQLKSCEEFMKTWRKYDTDHSGFIETEELKNFLKDLLEKANKTVDDTKLAEYTDLMLKLFDSNNDGKLELTEMARLLPVQENFLLKFQGIKMCGKEFNKAFELYDQDGNGYIDENELDALLKDLCEKNKQDLDINNITTYKKNIMALSDGGKLYRTDLALILCAGDN
notes: Assayed with 50 µM CaCl2; also called CALB1; source: E. coli BL-21 (DE3), pET-15b-CALB1, purified (HisTrap FF, Sephadex G75), His6 tag cut with thrombin
- koff: 0.0083 s⁻¹
